Patent US20170119806A1, “ARYLNAPHTHALENE LACTONE DERIVATIVES AND METHODS OF MAKING AND USING THEREOF” (OHIO STATE INNOVATION FOUNDATION, priority 2014, published 2017)

Chains of the proteins cited; added tags and fusions are not shown. Lines headed by an entry give the natural chain unless they say otherwise; changes in a name come on top.
UniProt P11388: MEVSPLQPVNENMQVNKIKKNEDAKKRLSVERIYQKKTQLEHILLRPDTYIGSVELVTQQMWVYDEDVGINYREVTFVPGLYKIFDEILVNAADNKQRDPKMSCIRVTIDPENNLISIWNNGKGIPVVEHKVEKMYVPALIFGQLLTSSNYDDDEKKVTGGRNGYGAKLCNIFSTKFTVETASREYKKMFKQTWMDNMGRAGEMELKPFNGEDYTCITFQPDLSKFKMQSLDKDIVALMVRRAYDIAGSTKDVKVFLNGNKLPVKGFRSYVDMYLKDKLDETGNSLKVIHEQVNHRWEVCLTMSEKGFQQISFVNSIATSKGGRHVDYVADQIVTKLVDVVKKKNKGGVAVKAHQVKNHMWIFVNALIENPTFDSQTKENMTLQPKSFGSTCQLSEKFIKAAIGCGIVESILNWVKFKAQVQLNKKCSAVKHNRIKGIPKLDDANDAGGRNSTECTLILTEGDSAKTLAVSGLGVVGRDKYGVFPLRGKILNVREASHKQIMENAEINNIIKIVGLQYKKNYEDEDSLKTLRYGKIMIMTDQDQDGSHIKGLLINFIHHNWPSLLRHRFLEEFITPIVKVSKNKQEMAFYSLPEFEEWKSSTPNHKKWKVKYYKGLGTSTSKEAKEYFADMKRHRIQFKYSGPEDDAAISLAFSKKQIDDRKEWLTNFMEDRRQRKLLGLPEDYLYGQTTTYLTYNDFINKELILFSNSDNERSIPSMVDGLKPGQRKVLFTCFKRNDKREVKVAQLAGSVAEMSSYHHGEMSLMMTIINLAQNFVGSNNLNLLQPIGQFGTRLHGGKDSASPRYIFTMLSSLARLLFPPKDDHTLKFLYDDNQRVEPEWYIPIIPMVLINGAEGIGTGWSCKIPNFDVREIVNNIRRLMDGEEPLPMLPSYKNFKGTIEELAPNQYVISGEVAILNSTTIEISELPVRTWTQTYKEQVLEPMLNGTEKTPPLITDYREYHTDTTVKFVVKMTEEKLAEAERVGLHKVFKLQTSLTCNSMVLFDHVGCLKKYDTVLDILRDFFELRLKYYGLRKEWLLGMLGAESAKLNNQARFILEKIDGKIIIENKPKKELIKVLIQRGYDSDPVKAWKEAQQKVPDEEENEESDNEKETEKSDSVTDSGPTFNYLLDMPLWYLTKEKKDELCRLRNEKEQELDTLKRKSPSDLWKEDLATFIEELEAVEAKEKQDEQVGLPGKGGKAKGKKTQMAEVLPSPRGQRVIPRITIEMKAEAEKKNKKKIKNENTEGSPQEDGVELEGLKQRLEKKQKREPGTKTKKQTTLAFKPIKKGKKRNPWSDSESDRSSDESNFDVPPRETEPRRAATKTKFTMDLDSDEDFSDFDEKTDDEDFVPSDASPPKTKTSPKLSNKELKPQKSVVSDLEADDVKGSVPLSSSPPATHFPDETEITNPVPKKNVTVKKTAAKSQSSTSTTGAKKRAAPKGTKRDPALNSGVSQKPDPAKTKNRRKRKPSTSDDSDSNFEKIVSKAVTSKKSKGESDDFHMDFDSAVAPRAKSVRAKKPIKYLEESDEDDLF

Molecular target: topo IIα (Homo sapiens, UniProt P11388)
Assay: Topoisomerase II assay (DNA cleavage/relaxation)
Format: biochemical
Conditions: 100 μM test compound
Text: The formation of linear DNA was detected by separating the SDS-treated reaction products using ethidium bromide gel electrophoresis and quantified by accounting for the relationship between fluorescence and relative band intensity for open circular (OC), linear (LNR), supercoiled (SC), and relaxed (RLX) configurations of DNA.
Topoisomerase II Assay. […] The formation of linear DNA was detected by separating the SDS-treated reaction products using ethidium bromide gel electrophoresis by a modification of a previously described procedure (Hasinoff B B et al. Mol. Pharmacol. 2005, 67, 937-947). In this system, topo II-mediated catalytic conversion of supercoiled pBR322 DNA to the “relaxed” form of plasmic' DNA can also be observed. […] The DNA in the gel was imaged by its fluorescence on a Chemi-Doc XRS+ imager (Bio-Rad, Hercules, Calif.). Linear DNA was quantified by accounting for the relationship between fluorescence and relative band intensity for open circular (QC), linear (LNR), supercoiled (SC), and RLX (relaxed) configurations of DNA (Projan S J et al. Plasmid 1983, 9, 182-190), then calculating % of LNR from the total DNA content in each lane.

- topo IIα inhibition (in words): showed topo Ha inhibitory activity
SMILES: COc1cc([C@@H]2c3cc4c(cc3[C@@H](O[C@@H]3O[C@@H]5CO[C@@H](C)O[C@H]5[C@H](O)[C@H]3O)[C@H]3COC(=O)[C@H]23)OCO4)cc(OC)c1O [etoposide, reference compound]
